{"source": "patent US20120208223A1", "about": "“FL[…] ENERGY TRANSFER ENZYME SUBSTRATES” (GE […], priority 2004, published 2012)", "biological_target": "cathepsin D (Homo sapiens, UniProt P07339)", "test": "Inhibition of cathepsin D enzyme activity by a known inhibitor using the method of the invention", "format": "biochemical", "details": "in the presence of 12 nM inhibitor", "description": "Assays may be performed according to the present invention in high throughput screening applications, including those in which test agents are screened for their inhibitory effects, potentiation effects, agonistic, or antagonistic effects on the enzyme reaction under investigation. Thus, in a preferred embodiment according to the second aspect, there is provided a method of screening for a test agent whose effect upon the activity of an enzyme in cleaving a substrate is to be determined. […]\nThe test agent may be, for example, any organic or inorganic compound such as a synthetic molecule or a natural product (e.g. peptide, oligonucleotide), or a may be an energy form (e.g. light or heat or other forms of electromagnetic radiation). Inhibitors of enzyme activity can be detected using the method according to the preferred embodiment; for example, the known inhibitor pepstatin A can be readily shown to inhibit cathepsin D enzyme activity using the method of the invention. […]\nAs an example, an assay for the detection of proteolytic enzyme activity may be configured as follows. […] Upon addition of enzyme, typically the reaction is allowed to proceed to completion, progress being monitored by observing the steady state fluorescence emission due to the fluorescent acceptor dye, which is recorded using a spectrofluorimeter. […]"}
{"compound": "CC(C)CC(=O)N[C@H](C(=O)N[C@H](C(=O)N[C@@H](CC(C)C)[C@@H](O)CC(=O)N[C@@H](C)C(=O)N[C@@H](CC(C)C)[C@@H](O)CC(=O)O)C(C)C)C(C)C", "note": "[pepstatin A]", "values": [{"measurement": "cathepsin D activity, fold less than in the absence of the inhibitor", "result": "~5", "unit": "fold"}]}
